This passage reports Kd results from patent US8765972B2 (priority 2009, dated 2014).

Protein sequences, listed by entry. Tags and fused reporters are not part of them. Lines headed by an entry give the natural chain unless they say otherwise; changes in a name come on top.
UniProt Q9UGN5: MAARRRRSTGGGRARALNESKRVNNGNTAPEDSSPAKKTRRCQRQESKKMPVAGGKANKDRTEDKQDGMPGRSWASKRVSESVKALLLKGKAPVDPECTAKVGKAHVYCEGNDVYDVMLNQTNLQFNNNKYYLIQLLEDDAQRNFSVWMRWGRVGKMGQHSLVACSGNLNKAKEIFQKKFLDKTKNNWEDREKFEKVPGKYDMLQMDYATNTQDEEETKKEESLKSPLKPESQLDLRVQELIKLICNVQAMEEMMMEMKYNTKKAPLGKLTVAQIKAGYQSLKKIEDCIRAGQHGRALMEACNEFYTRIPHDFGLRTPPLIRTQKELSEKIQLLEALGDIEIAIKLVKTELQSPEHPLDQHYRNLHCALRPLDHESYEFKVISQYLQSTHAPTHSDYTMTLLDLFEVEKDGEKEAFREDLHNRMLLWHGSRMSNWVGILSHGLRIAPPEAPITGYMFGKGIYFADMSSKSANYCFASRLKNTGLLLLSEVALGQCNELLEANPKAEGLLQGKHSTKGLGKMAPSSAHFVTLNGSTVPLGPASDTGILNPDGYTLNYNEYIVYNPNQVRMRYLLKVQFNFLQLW

The Kd is the concentration at which binding is half-saturated.

This assay concerns the target PARP-2 (Homo sapiens (Human), UniProt Q9UGN5). As to conditions: read-out: KD, PARP-2 FL (compound P1); displacement, probe compound P1 50 nM, PARP-2 250 nM; average of three independent experiments.

For `CN(C)CC(=O)Nc1ccc2[nH]c(=O)c3ccccc3c2c1` [PJ34, N-(6-oxo-5,6-dihydro-phenanthridin-2-yl)-N,N-dimethylacetamide, reference compound], the Kd was below 30 nM.
